Experimental data from patent US12583836B2 (Anaxis Pharma Pty Ltd, priority 2020, dated 2026).

The chains behind the UniProt entries cited, without tags or fusion partners. Where a name states a change or a piece, a line headed by the entry shows the natural chain unless it says otherwise.
UniProt Q9Y572: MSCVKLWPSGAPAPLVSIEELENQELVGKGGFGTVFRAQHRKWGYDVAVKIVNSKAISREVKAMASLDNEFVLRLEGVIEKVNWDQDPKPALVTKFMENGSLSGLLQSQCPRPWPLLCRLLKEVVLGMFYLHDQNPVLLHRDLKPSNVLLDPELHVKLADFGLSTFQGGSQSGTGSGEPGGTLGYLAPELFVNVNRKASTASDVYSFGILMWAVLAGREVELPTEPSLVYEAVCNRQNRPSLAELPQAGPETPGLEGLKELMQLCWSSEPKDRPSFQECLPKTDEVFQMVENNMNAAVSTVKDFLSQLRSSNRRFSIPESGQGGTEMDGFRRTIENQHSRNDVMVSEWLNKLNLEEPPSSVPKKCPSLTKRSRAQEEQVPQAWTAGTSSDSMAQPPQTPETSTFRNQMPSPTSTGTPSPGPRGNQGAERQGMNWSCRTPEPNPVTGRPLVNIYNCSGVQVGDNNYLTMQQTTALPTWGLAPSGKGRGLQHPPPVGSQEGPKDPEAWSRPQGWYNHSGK

How the values were obtained:
Conditions in all cases: equilibrium dissociation constant, class symbols
MLKL (full length) = biological target: T1, MLKL (full length) (Homo sapiens, UniProt Q8NB16); assay: KINOMEscan binding assay, MLKL
T1 construct: purchased DiscoverX (KINOMEscan service); host or cells: E. coli BL21-derived (T7 phage) or HEK293
T1 sequence (Q8NB16 1-471): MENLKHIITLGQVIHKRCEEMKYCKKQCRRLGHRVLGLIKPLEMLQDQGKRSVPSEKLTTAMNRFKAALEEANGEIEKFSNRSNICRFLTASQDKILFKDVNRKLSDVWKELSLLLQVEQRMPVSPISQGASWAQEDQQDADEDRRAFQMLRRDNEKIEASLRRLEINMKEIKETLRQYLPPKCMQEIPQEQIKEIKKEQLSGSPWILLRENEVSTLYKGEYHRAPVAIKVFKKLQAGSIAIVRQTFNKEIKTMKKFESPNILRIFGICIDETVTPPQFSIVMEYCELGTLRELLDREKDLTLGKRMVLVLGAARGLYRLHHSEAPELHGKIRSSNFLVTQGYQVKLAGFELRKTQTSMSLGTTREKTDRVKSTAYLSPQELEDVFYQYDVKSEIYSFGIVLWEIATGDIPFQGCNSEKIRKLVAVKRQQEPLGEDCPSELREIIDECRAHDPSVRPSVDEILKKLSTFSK

RIP1 = biological target: T2, RIP1 (Homo sapiens, UniProt Q13546); assay: KINOMEscan binding assay, RIP1
T2 construct: purchased DiscoverX (KINOMEscan service); host or cells: E. coli BL21-derived (T7 phage) or HEK293
T2 sequence (Q13546 1-671): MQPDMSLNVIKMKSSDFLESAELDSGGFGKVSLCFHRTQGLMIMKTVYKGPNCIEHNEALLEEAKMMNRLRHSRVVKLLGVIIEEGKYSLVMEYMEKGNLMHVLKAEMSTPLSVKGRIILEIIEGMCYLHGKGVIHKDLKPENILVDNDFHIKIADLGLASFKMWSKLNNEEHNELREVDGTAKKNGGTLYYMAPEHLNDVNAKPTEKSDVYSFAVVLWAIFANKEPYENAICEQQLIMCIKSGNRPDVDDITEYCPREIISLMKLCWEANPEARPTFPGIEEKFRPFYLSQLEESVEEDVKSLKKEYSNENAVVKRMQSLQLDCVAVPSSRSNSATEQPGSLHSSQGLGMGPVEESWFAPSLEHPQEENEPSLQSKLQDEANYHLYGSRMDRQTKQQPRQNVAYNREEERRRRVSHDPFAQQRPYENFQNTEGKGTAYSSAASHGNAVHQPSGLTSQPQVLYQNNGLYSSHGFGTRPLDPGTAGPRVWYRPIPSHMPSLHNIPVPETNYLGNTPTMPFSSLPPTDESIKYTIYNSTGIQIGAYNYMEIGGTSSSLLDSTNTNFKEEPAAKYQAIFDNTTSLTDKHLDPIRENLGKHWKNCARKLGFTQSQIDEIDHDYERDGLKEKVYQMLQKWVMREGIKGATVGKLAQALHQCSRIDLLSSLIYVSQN

RIP3 = biological target: T3, RIP3 (Homo sapiens, UniProt Q9Y572); assay: KINOMEscan binding assay, RIP3
T3 construct: purchased DiscoverX (KINOMEscan service); host or cells: E. coli BL21-derived (T7 phage) or HEK293

| Kd (MLKL (full length)) [µM] | Kd (RIP1) [µM] | Kd (RIP3) [µM] | Structure (SMILES) |
| --- | --- | --- | --- |
| < 0.01 | > 30 | > 30 | CCS(=O)(=O)Nc1ccc(-c2n[nH]c(Nc3cnccn3)c2C(N)=O)cc1OCc1ccc(F)cc1 [Compound 62, 3-(4-(ethylsulfonamido)-3-((4-fluorobenzyl)oxy)phenyl) 5-(pyrazin-2-ylamino)-1H pyrazole-4-carboxamide] |
| < 0.01 | > 30 | > 30 | CCS(=O)(=O)Nc1ccc(-c2n[nH]c(Nc3cnc4ccccc4n3)c2C(N)=O)cc1 [Compound 67, 3-(4-(ethylsulfonamido)phenyl)-5-(quinoxalin-2-ylamino)-1H-pyrazole-4-carboxamide] |
| < 0.01 | > 30 | > 30 | NC(=O)c1c(-c2ccc(NS(=O)(=O)C3CC3)cc2)n[nH]c1Nc1cnccn1 [Compound 68, 3-(4-(cyclopropanesulfonamido)phenyl)-5-(pyrazin-2-ylamino)-1H-pyrazole-4-carboxamide] |
| < 0.01 | > 30 | > 30 | NC(=O)c1c(-c2ccc(NS(=O)(=O)CCC(F)(F)F)cc2)n[nH]c1Nc1cnccn1 [Compound 72, 5-(pyrazin-2-ylamino)-3-(4-((3,3,3-trifluoropropyl)sufonamido)phenyl)-1H-pyrazole-4-carboxamide] |
| < 0.01 | > 30 | > 30 | CCS(=O)(=O)Nc1ccc(-c2n[nH]c(Nc3cnc(C(F)(F)F)cn3)c2C(N)=O)cc1 [Compound 75, 3-(4-ethanesulfonamidophenyl)-5-{[5-(trifluoromethyl)pyrazin-2-yl]amino}-1H-pyrazole-4-carboxamide] |
| 0.01 to 1 | > 30 | > 30 | NC(=O)c1c(-c2ccc(NS(=O)(=O)c3ccc(OC(F)(F)F)cc3)cc2)n[nH]c1Nc1cnccn1 [Compound 78, 5-(pyrazin-2-ylamino)-3-(4-((4-(trifluoromethoxy)phenyl)sulfonamido)phenyl)-1H-pyrazole-4-carboxamide] |
| 0.01 to 1 | > 30 | > 30 | NC(=O)c1c(-c2ccc(NS(=O)(=O)c3ccc(C(F)(F)F)cc3)cc2)n[nH]c1Nc1cnccn1 [Compound 79, 5-(pyrazin-2-ylamino)-3-(4-((4-(trifluoromethyl)phenyl)sulfonamido)phenyl)-1H-pyrazole-4-carboxamide] |
| 0.01 to 1 | > 30 | > 30 | COc1ccc(S(=O)(=O)Nc2ccc(-c3n[nH]c(Nc4cnccn4)c3C(N)=O)cc2)cc1 [Compound 82, 3-(4-((4-methoxyphenyl)sulfonamido)phenyl)-5-(pyrazin-2-ylamino)-1H-pyrazole-4-carboxamide] |
| 0.01 to 1 | > 30 | 1 to 30 | CCS(=O)(=O)Nc1ccc(-c2n[nH]c(Nc3cc(C(F)(F)F)ccn3)c2C(N)=O)cc1 [Compound 85, 3-(4-(ethylsulfonamido)phenyl)-5-((4-(trifluoromethyl)pyridin-2-yl)amino)-1H-pyrazole-4-carboxamide] |
| < 0.01 | > 30 | > 30 | CCS(=O)(=O)Nc1ccc(-c2n[nH]c(Nc3cc4ccccc4cn3)c2C(N)=O)cc1 [Compound 87, 3-(4-(ethylsulfonamido)phenyl)-5-(isoquinolin-3-ylamino)-1H-pyrazole-4-carboxamide] |
| < 0.01 | 1 to 30 | 1 to 30 | CCS(=O)(=O)Nc1ccc(-c2n[nH]c(Nc3ccc(OC)cn3)c2C(N)=O)cc1 [Compound 88, 3-(4-(ethylsulfonamido)phenyl)-5-((5-methoxypyridin-2-yl)amino)-1H-pyrazole-4-carboxamide] |
| 0.01 to 1 | > 30 | 1 to 30 | CCS(=O)(=O)Nc1ccc(-c2n[nH]c(Nc3cccc(C)n3)c2C(N)=O)cc1 [Compound 94, 3-(4-(ethylsulfonamido)phenyl)-5-((6-methylpyridin-2-yl)amino)-1H-pyrazole-4-carboxamide] |
| 0.01 to 1 | > 30 | 1 to 30 | CCS(=O)(=O)Nc1ccc(-c2n[nH]c(Nc3cc(OC)ccn3)c2C(N)=O)cc1 [Compound 95, 3-(4-(ethylsulfonamido)phenyl)-5-((4-methoxypyridin-2-yl)amino)-1H-pyrazole-4-carboxamide] |
| 0.01 to 1 | > 30 | > 30 | CCCS(=O)(=O)Nc1ccc(-c2n[nH]c(Nc3cnccn3)c2C(N)=O)cc1 [Compound 97, 3-(4-(propylsulfonamido)phenyl)-5-(pyrazin-2-ylamino)-1H-pyrazole-4-carboxamide] |
| < 0.01 | > 30 | 1 to 30 | CCS(=O)(=O)Nc1ccc(-c2n[nH]c(Nc3cccc(OC(F)(F)F)n3)c2C(N)=O)cc1 [Compound 103, 3-(4-(ethylsulfonamido)phenyl)-5-((6-(trifluoromethoxy)pyridin-2-yl)amino)-1H-pyrazole-4-carboxamide] |
| < 0.01 | > 30 | > 30 | CCS(=O)(=O)Nc1ccc(-c2n[nH]c(Nc3ccnc(OCC(F)F)c3)c2C(N)=O)cc1 [Compound 106, 5-((2-(2,2-difluoroethoxy)pyridin-4-yl)amino)-3-(4-(ethylsulfonamido)phenyl)-1H-pyrazole-4-carboxamide] |
| < 0.01 | > 30 | > 30 | COCCOc1cc(Nc2[nH]nc(-c3ccc(NS(=O)(=O)CC#N)cc3)c2C(N)=O)ccn1 [Compound 110, 3-(4-((cyanomethyl)sulfonamido)phenyl)-5-((2-(2-methoxyethoxy)pyridin-4-yl)amino)-1H-pyrazole-4-carboxamide] |
| < 0.01 | > 30 | > 30 | CCS(=O)(=O)Nc1ccc(-c2n[nH]c(Nc3cc(C)nc(C)c3)c2C(N)=O)cc1 [Compound 112, 5-((2,6-dimethylpyridin-4-yl)amino)-3-(4-(ethylsulfonamido)phenyl)-1H-pyrazole-4-carboxamide] |
| 0.01 to 1 | > 30 | > 30 | CCS(=O)(=O)Nc1ccc(-c2n[nH]c(Nc3cc(OC)ncc3C)c2C(N)=O)cc1 [Compound 118, 3-(4-(ethylsulfonamido)phenyl)-5-((2-methoxy-5-methylpyridin-4-yl)amino)-1H-pyrazole-4-carboxamide] |
| < 0.01 | 1 to 30 | 1 to 30 | CCS(=O)(=O)Nc1ccc(-c2n[nH]c(Nc3ccnc(OC)c3)c2C(N)=O)cc1 [Compound 121, 3-(4-(ethylsulfonamido)phenyl)-5-((2-methoxypyridin-4-yl)amino)-1H-pyrazole-4-carboxamide] |
| < 0.01 | > 30 | > 30 | CCS(=O)(=O)Nc1ccc(-c2n[nH]c(Nc3cccc(C(F)(F)F)n3)c2C(N)=O)cc1 [Compound 126, 3-(4-(ethylsulfonamido)phenyl)-5-((6-(trifluoromethyl)pyridin-2-yl)amino)-1H-pyrazole-4-carboxamide] |
| < 0.01 | > 30 | 1 to 30 | CCS(=O)(=O)Nc1ccc(-c2n[nH]c(Nc3ccccn3)c2C(N)=O)cc1 [Compound 131, 3-(4-(ethylsulfonamido)phenyl)-5-(pyridin-2-ylamino)-1H-pyrazole-4-carboxamide] |
| 1 to 30 | > 30 | 1 to 30 | NC(=O)c1c(-c2ccc(NS(=O)(=O)CC3CCC3)cc2)n[nH]c1Nc1ccccn1 [Compound 134] |
| 1 to 30 | > 30 | > 30 | CCS(=O)(=O)Nc1ccc(-c2n[nH]c(Nc3cccc(C(F)(F)F)n3)c2C(N)=O)c(OCc2ccc(F)cc2)c1 [Compound 141, 3-(4-(ethylsulfonamido)-2-((4-fluorobenzyl)oxy)phenyl)-5-((6-(trifluoromethyl)pyridine-2-yl)amino)-1H-pyrazole-4-carboxamide] |
| < 0.01 | > 30 | > 30 | NC(=O)c1c(-c2ccc(NS(=O)(=O)C(F)F)c(Oc3ccc(F)cc3)c2)n[nH]c1Nc1cccc(C(F)(F)F)n1 [Compound 147, 3-(4-((difluoromethyl)sulfonamido)-3-(4-fluorophenoxy)phenyl)-5-((6-(trifluoromethyl)pyridine-2-yl)amino)-1H-pyrazole-4-carboxamide] |
